Measurements reported in patent US10912763B2 (priority 2010, dated 2021).
Where two headings read alike, the source gives them in different places.

Legend:
[1] = tested on: acute post-operative pain following orthopedic surgery (bunionectomy)
[2] = Storage stability of tablets made by fluid bed granulation; conditions: tablet, dosage 50 μg, 6 months

| Compound | deaths ([1]; 60 mg) | deaths ([1]; 60 mg controlled-release) | Content of decomposition product 6′-fluoro-4-phenyl-4′,9′-dihydro-3′H-spiro[cyclohex-3-ene-1,1′-pyrano[3,4-b]indole] ([2]; 25° C. and 60% rh) | Content of decomposition product 6′-fluoro-4-phenyl-4′,9′-dihydro-3′H-spiro[cyclohex-3-ene-1,1′-pyrano[3,4-b]indole] ([2]; 40° C. and 75% RH) |
| --- | --- | --- | --- | --- |
| CN1CC[C@]23c4c5ccc(O)c4O[C@H]2[C@@H](O)C=C[C@H]3[C@H]1C5 | 0 | 0 |  |  |
| 1,1-(3-methylamino-3-phenylpentamethylene)-6-fluoro-1,3,4,9-tetrahydropyrano[3,4-b]indole (trans) |  |  | < 0.1% | < 0.1% |
